Measurements as given in patent publication EP1205473A1, “VESAMICOL PIPERAZINE DERIVATIVES AND DRUGS CONTAINING THE SAME” (DAIICHI RADIOISOTOPE LABORATORIES, LTD., priority 1999, dated 2001).

Chains of the proteins cited; added tags and fusions are not shown.
UniProt Q62666, whole entry: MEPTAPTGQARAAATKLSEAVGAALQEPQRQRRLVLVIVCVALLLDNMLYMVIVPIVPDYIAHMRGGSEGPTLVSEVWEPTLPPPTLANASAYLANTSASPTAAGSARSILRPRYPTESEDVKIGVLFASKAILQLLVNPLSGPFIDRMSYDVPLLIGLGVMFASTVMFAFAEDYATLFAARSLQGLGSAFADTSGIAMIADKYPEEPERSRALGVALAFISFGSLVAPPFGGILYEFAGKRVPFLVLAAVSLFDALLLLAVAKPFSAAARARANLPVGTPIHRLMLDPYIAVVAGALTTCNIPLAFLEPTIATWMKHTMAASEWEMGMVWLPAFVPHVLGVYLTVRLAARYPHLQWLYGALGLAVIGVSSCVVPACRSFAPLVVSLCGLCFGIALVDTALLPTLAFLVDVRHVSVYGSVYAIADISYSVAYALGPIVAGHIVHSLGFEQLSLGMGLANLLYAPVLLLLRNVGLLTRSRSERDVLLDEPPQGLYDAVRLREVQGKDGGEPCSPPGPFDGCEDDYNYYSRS

Biological target: vesamicol receptors (Rattus norvegicus, UniProt Q62666)
Assay: Inhibition experiment: inhibition of binding of radioactive-iodine-labeled DRC140 to P2 fractions
Conditions: read-out: IC50 (nM) Average ± S.D, Table 7, Binding site names the inhibitor's own site

CN1[C@@H]2CC[C@H]1C[C@@H](NC(=O)c1nn(C)c3ccccc13)C2
IC50: > 5000 nM
